Source: US6521659B2, “Compositions containing a substituted indolealkanoic acid and an angiotensin converting enzyme inhibitor” (Institute for Pharmaceutical Discovery, LLC, priority 2000, dated 2003)

Biological target: human aldose reductase (hALR2) (Homo sapiens, UniProt P15121)
Experiment: Inhibition of human aldose reductase (hALR2), methods similar to Butera et al.
Assay type: biochemical
Experimental: Representative compounds of Formula Iwere tested for their potency, selectivity and efficacy as inhibitors of human aldose reductase.
Since high potency of test compounds as inhibitors of aldose reductase is desirable, low hALR2 IC50 values are sought. On the other hand, high potency of test compounds as inhibitors of aldehyde reductase is undesirable, and high ALR1 IC50s values are sought. Accordingly, the hALR1/hALR2 ratio is used to determine the selectivity of the test compounds. The importance of this selectivity is Described in Kotani, et al., J. Med. Chem. 40: 684, 1997.

For “3-[6-Fluorbenzothiazole-2-yl]methyl-indole-N-acetic Acid [Example 24]”, which IC50 is on record?
Its IC50 is 1040 nM.
